# Publication PMC5613693, “Interactions of Desmethoxyyangonin, a Secondary Metabolite from Renealmia alpinia, with Human Monoamine Oxidase-A and Oxidase-B” (Evidence-based Complementary and Alternative Medicine : eCAM, 2017)
# Protein sequences, listed by entry. Tags and fused reporters are not part of them.
# UniProt P27338, whole entry: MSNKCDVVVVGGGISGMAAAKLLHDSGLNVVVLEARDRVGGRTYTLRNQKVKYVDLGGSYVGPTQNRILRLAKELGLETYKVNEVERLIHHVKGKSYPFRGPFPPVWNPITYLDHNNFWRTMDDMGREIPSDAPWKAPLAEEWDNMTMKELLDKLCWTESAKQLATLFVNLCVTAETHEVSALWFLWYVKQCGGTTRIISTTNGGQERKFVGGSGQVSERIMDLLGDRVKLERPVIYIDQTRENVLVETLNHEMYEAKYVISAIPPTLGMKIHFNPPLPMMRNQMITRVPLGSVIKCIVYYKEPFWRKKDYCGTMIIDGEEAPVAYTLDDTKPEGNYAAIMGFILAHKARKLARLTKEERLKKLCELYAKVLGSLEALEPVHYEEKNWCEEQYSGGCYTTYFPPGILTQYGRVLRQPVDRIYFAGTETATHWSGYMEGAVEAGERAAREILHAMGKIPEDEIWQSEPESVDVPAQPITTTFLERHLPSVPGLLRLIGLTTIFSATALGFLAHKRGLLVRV
# UniProt P21397, whole entry: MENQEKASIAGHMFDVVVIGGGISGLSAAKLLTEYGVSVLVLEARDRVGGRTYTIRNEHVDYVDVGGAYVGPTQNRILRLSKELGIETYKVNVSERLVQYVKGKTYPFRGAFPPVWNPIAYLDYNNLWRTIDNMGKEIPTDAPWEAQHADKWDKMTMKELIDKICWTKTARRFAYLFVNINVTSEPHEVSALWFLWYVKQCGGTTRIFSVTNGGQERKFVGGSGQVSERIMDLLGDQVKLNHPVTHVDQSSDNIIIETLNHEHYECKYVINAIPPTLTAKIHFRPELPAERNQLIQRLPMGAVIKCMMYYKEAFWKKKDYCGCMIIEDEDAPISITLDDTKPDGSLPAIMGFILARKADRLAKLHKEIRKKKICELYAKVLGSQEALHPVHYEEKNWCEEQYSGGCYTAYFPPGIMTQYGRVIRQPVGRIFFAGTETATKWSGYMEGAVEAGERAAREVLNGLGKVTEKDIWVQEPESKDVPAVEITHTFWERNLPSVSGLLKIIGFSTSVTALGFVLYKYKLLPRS
# Columns and labels:
# Format in all cases: biochemical
# [1] = molecular target: T1, recombinant human MAO-B (Homo sapiens, UniProt P27338); experiment: Fluorometric kynuramine deamination assay, MAO-B inhibition (IC50)
# T1 construct: purchased BD Biosciences (Bedford, MA, USA); host or cells: baculovirus (Autographa californica) infected insect cells (BTI-TN-5B1-4)
# Method: Pure recombinant human monoamine oxidases (MAO-A and MAO-B) enzymes overexpressed in baculovirus (Autographa californica) infected insect cells (BTI-TN-5B1-4) were purchased from BD Biosciences, (Bedford, MA, USA).
# Stock solutions of the test compounds/extracts were prepared in DMSO and diluted further in 0.1 M potassium phosphate buffer (pH 7.4) to obtain the desired concentrations. MAO-A and MAO-B activities were determined by fluorometric kynuramine deamination assay set up in 384-well solid white flat-bottom plates. MAO-A and MAO-B inhibition activities (IC50 values) were determined using fixed concentration of the substrate kynuramine and varying concentrations of the test compounds or extracts. The enzyme reactions were carried out in 0.1 M potassium phosphate buffer (pH-7.4). […] The reaction mixtures with buffer/substrate/inhibitor were preincubated for 10 minutes at 37°C, followed by addition of MAO-A and MAO-B to initiate the reaction. The solid white microplates were incubated for 20 minutes at 37°C and the enzymatic reaction was stopped by addition of 28 µL of 2 N NaOH to each well. The deaminated product of kynuramine, which spontaneously cyclizes to 4-hydroxyquinoline, was measured fluorometrically at 320 nm excitation and 380 nm emission wavelengths with a plate reader (SpectraMax M5, Molecular Devices, Sunnyvale, CA, USA). […]
# [2] = molecular target: T2, recombinant human MAO-A (Homo sapiens, UniProt P21397); experiment: Enzyme kinetics and mechanism of inhibition of MAO-A; details: Lineweaver-Burk / dialysis
# T2 construct: purchased BD Biosciences (Bedford, MA, USA); host or cells: baculovirus (Autographa californica) infected insect cells (BTI-TN-5B1-4)
# Method: (§1) Results are presented as double reciprocal Lineweaver-Burk plots. The kinetic data, namely, KM, Vmax, and Ki values, were calculated by SigmaPlot 12.3 with enzyme-kinetics module using Michaelis-Menten equation. The results were also analyzed for the type of inhibition.
# (§2) We further evaluated the kinetics and mechanism of inhibition of human MAO-A and MAO-B isoenzymes by desmethoxyyangonin 6 (Figures 3 and 4). To comprehend the type of inhibition, we examined 6 against both MAO-A and MAO-B at varying concentrations of kynuramine, a nonselective substrate. Desmethoxyyangonin 6 was tested at two concentrations: one above and the other below the IC50 value. For each experiment, three sets of assays were done at variable concentrations of the substrate: two concentrations of the inhibitor/compound and one control without inhibitors. The results are presented as double reciprocal Lineweaver-Burk plots and the kinetic data, namely, KM, Vmax, and Ki values, were computed by SigmaPlot 12.3 with enzyme-kinetics module using Michaelis-Menten equation (Table 2). […] However, MAO-B inhibition by 6 was competitive (Figure 4). The binding affinities of compound 6 with MAO-A and MAO-B were compared with reference MAO inhibitors.
# [3] = molecular target: T1, recombinant human MAO-B; experiment: Enzyme kinetics and mechanism of inhibition of MAO-B; details: Lineweaver-Burk / dialysis
# Method: as §1, §2
smiles,measurement,setting,value
"NNCCc1ccccc1 [Phenelzine, phenelzine, reference compound]",IC50,"[1]; kynuramine 50 μM, mean ± SD of triplicate, read-out: Monoamine oxidase-B IC50",0.15 ± 0.0095 µM
same,Index MAO-A/B,[1]; ratio of IC50 MAO-A / IC50 MAO-B,1.566
same,"Type of Inhibition, Monoamine oxidase-A",[2],Mixed/irreversible
same,"Type of Inhibition, Monoamine oxidase-B",[3],Mixed/irreversible
